Tested on: Nc1nc2c(ncn2[C@@H]2O[C@@H]3CO[P@](=O)(O)O[C@H]4[C@@H](O)[C@H](n5cnc6c(=O)[nH]c(N)nc65)O[C@@H]4CO[P@](=O)(O)O[C@H]3[C@H]2O)c(=O)[nH]1
Experiment: purified protein
Conditions: pH 8.0

Which Km does the source give for “(Vibrio cholerae O1 biovar El Tor str. N16961)” here?
Its Km is 18 ± 8.1 µM.

— publication PMC8177754
